# Conditions: in vivo
substance,measurement,value
Ivermectin,release and uptake in the blood,"successfully releases the Ivermectin post-rumen, allowing for uptake in the blood"

# Reference: US11850280B1 (priority 2020, dated 2023)
